Reference: ChEMBL document CHEMBL4184175, “Design, synthesis and biological evaluation of novel indole-xanthendione hybrids as selective estrogen receptor modulators” (Bioorg Med Chem, 2018)

System: T47D
Assay: Antiproliferative activity against human T47D cells after 48 hrs by MTT assay
Format: functional, cell-based

SMILES | Activity
CC1CC(=O)C2=C(C1)OC1=C(C(=O)CCC1)C2c1cc2ccccc2n1Cc1ccccc1 (centres undefined) | Dose-dependent effect
CC1CC(=O)C2=C(C1)OC1=C(C(=O)CC(C)(C)C1)C2c1cc2ccccc2n1Cc1ccccc1 (centres undefined) | Dose-dependent effect
CC1(C)CC(=O)C2=C(C1)OC1=C(C(=O)CCC1)C2c1cc2ccccc2n1Cc1ccccc1 (centres undefined) | Dose-dependent effect
CC1(C)CCC(=O)C2=C1OC1=C(C(=O)CCC1)C2c1cc2ccccc2n1Cc1ccccc1 (centres undefined) | Dose-dependent effect
CC1(C)CC(=O)C2=C(C1)OC1=C(C(=O)CCC1(C)C)C2c1cc2ccccc2n1Cc1ccccc1 (centres undefined) | Dose-dependent effect
O=C1CCC2=C1C(c1cc3ccccc3n1Cc1ccccc1)C1=C(CCC1=O)O2 | Dose-dependent effect
CC1(C)CC(=O)C2=C(C1)OC1=C(C(=O)CC(C)(C)C1)C2c1cc2ccccc2n1Cc1ccccc1 | Dose-dependent effect
O=c1[nH]c2c(c(=O)[nH]1)C(c1cc3ccccc3n1Cc1ccccc1)c1c([nH]c(=O)[nH]c1=O)O2 | Dose-dependent effect
CC1CC(=O)C2=C(C1)OC1=C(C(=O)CCC1(C)C)C2c1cc2ccccc2n1Cc1ccccc1 (centres undefined) | Dose-dependent effect
